Source: BindingDB's records for doi:10.1016/j.ejmech.2020.112648 (Shenzhen Technology University, 2020)

Target: T1, Histone deacetylase 8 (Homo sapiens, UniProt Q9BY41)
T1 sequence (Q9BY41 whole entry): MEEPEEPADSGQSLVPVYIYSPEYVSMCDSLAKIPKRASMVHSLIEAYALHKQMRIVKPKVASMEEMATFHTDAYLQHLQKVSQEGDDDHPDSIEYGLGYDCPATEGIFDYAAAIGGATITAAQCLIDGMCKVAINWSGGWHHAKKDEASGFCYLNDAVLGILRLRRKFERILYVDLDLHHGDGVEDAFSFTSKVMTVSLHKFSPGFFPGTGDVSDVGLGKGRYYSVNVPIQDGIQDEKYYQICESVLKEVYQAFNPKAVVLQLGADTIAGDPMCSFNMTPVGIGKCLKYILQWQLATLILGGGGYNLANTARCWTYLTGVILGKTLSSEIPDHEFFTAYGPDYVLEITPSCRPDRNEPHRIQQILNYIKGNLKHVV
Test: Inhibition of recombinant human full-length C-terminal His-tagged HDAC8 expressed in baculovirus infected Sf9 insect cells using Ac-Leu-Gly-Lys(Tfa)-AMC as substrate measured after 30 mins by fluorescence assay

IC50: > 1000 nM
SMILES: O=C(CCCCCCC(=O)Nc1ccccc1)NO [Zolinza]
